## Yeast mating assay B: variants of the scFv Ab-14

Source: Li et al. 2023 (doi:10.1038/s41467-023-39022-2), MIT Lincoln Laboratory and A-Alpha Bio; data file from the FLAb repository.

Target: peptide PDVDLGDISGINAS, taken from heptad repeat 2 (HR2) of SARS-CoV-2 spike.

Ab-14 is the parent antibody, in scFv form: VH, then three GGGGS repeats, then VL. The light chain is unchanged in all variants.
VH: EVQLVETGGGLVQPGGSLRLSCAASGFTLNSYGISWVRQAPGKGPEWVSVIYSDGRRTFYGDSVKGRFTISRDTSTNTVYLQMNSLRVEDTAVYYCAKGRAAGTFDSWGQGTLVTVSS
VL: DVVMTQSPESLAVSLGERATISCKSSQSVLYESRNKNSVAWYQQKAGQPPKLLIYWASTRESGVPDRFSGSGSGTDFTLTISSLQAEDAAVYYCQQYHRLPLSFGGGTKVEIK

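This is the validation round: designs drawn from the data on random variants, tested in the same kind of assay. Several design methods are mixed in this list. The scFvs were displayed on barcoded MATa yeast, the peptide on MATalpha yeast. The frequency of each diploid, read from paired DNA barcodes, reflects how well the two displayed proteins bind. The ratio of observed to expected reads was calibrated, replicate by replicate, on BCL2-family standards whose Kd was known from biolayer interferometry. Each pool was mated in six replicate cultures.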

The parent's heavy chain CDRs are GFTLNSYGIS, VIYSDGRRTFYGDSVK, GRAAGTFDS; each variant's own CDRs replace them letter for letter. This list holds designs with at most six substitutions. Kd is apparent (estimated from mating counts) and averaged on the log scale over replicates with a signal. Smaller is tighter. Where no diploid with the target was found in any replicate, the entry reads "nd": below detection, most likely a poor binder, though not proof of it.

With GFTLNSYGIS / VIYSDGRRTFYGDSVK / GRAALWFDS the result was 35 nM (2 of 6 replicates). Variant GFTLNEYGIS / VIYSDGLRTFYSDSVK / GQAAGTFDS gave 3.0 nM (6 of 6 replicates). With GFTLNDYGIS / VIYSDGRRTQYMDSVK / GRAAGTFDS the result was 78 nM (5 of 6 replicates). Variant KFQLNSYGIS / VIYSDGRRTFYADSVK / GRTAGTFDS showed 21 nM (4 of 6 replicates). With GFTLNQYGIS / VIYSDGRRYFYSDSVK / GRATGFFIS the result was nd (0 of 6 replicates).

For GFTLNEYGIS / VIYSDGIRTFYGDSVK / GRHAGTFDS, the assay gave 6.0 nM (6 of 6 replicates). Variant GFELNSYGIS / VIYSDGKRTFYTDSVK / GRTAGTFDS gave 640 pM (6 of 6 replicates). Variant GFTLNDYGIS / VRYSDGRRTQYIDSVK / GRAAGTFDS gave nd (0 of 6 replicates). Variant GFTLNSYGIS / VIYSDGRRTFNGDSVK / GRAAGSFDS gave nd (0 of 6 replicates). Variant GFELNSYGIS / VIYSDGRRTFYGDSVK / GGVAGTFDS gave 6.1 nM (6 of 6 replicates).

With GFTLNSYGIS / VIYSDGPRTFYSDSVK / GRAGGTFDS the result was nd (0 of 6 replicates). With GFELNSYGIS / VIYSDGRRTFYQDSVK / GRMAGTFDS the result was 17 nM (6 of 6 replicates). For GFTLNEYGIS / VIYSDGRRIFYGDSVK / GRYAVTFDD, the assay gave nd (0 of 6 replicates). Variant GFNLNSYGIS / VIYSDGRRTEYGDEVK / GRGAGTFDM showed nd (0 of 6 replicates). For GFTLNSYGIS / VIYADGRRTFYGDSVK / GKAAGTFDV, the assay gave 420 pM (6 of 6 replicates).

Variant GFELNSYGIS / VIYSDGKRTFYGDQVK / GRTAGTFDS gave 1.6 nM (1 of 6 replicates). Variant GFNLNEYGIS / VIYSDGRRTFYGDSVK / GRQAGTFDS showed 1.1 nM (6 of 6 replicates). Variant GFTLNSYGIS / VIYADGRRMFYGDSVK / GRAAGTNKS showed nd (0 of 6 replicates). With GFELNSYGIS / VIYSDGRRTFYQPSVK / GRAAGTFDS the result was 130 nM (5 of 6 replicates). Variant GFTLNSYGIS / VIYSDGRRTFYQDSVK / GQTAGTFDS showed nd (0 of 6 replicates).

With GFSLNSYGIS / VIYSDGRRTFYGDSVK / GQAAGTFDK the result was nd (0 of 6 replicates). For GITLNSYGIS / VIYSDGRRTFYGDSVK / GRAYGTFDS, the assay gave nd (0 of 6 replicates). For GFDLNSYGIS / VIYSDGRRTFYGDKVK / GREAGTFDT, the assay gave nd (0 of 6 replicates). Variant GFTLNDYGIS / VIYSDGRRTFYIDSVK / GRAGGTFDS gave 250 nM (3 of 6 replicates). Variant GFELNSYGIS / VIYADGRRTFYGDSVK / GKAAGTFDK gave 950 pM (6 of 6 replicates).

For GFTLNSYGIS / VIYSDGRRTMYSDSVK / GRAGGTFDS, the assay gave 30 nM (1 of 6 replicates). Variant GFTLDSYGIS / VIYSDGRRTFYGDSVK / GSAAGTFDR gave 16 nM (4 of 6 replicates). With GFDLNSYGIS / VIMSDGRRTFYGLSVK / GRAAGWFNS the result was nd (0 of 6 replicates). With DFSLNEYGIS / VIYSDGRRTFYGDSVK / GRTAGTFDS the result was 2.3 nM (6 of 6 replicates). Variant GFTLNSYGIS / VMYSDGRRTFYGDSVK / GENAGTFSS gave 4.8 nM (1 of 6 replicates).

With GFTLNQYGIS / VIYSDGRRTFYSDSVK / GRAGGMDDS the result was 620 pM (6 of 6 replicates). For GFTLNEYGIS / VIYSDGRRTMYTDSVK / GRAAGTFDS, the assay gave 9.8 nM (4 of 6 replicates). Variant GFTLNEYGIS / VIYSDGRRTFYMDSVK / GRMAGTFDS gave 39 nM (6 of 6 replicates). For GFTLNDYGIS / VIYADGRRTFYGDSVK / GKAAGTFDS, the assay gave 420 pM (12 of 12 replicates). Variant GFDLNSYGIS / VIYSDGRRTFYVDRVK / GQAAGTFDF gave 6.7 nM (1 of 6 replicates).

Variant GFTLNSYGIS / VIYADGRRTFYGDQVK / GRAAGTNKS showed nd (0 of 6 replicates). Variant GFDLNSYGIS / VIYSDGRRTFYGDSVR / GSAAGTFES gave 15 nM (6 of 6 replicates). For GFSLNSYGIS / VIYSDGRRTFYGDSVK / GNAAGTFDN, the assay gave 2.5 nM (6 of 6 replicates). For GFDFNSYGIS / VQYSDGRRTFYGDSVK / GRAAGWFNS, the assay gave nd (0 of 6 replicates). Variant GFTLNSYGIS / VIYADGRRTFYGDSVK / GRAQFTFDS gave nd (0 of 6 replicates).

For GAVLNSYGIS / VIYSDGRRTFYGDSVK / GTNAGTFDS, the assay gave 35 nM (6 of 6 replicates).

Extract of 5 entries:

The variant KFQLNSYGIS / VIYSDGRRTFYADSVK / GRTAGTFDS showed 21 nM (4 of 6 replicates).
The variant GFTLNSYGIS / VIYSDGRRTFYGDSVK / GRAALWFDS showed 35 nM (2 of 6 replicates).
The variant GFELNSYGIS / VIYSDGKRTFYGDQVK / GRTAGTFDS showed 1.6 nM (1 of 6 replicates).
The variant GFTLNDYGIS / VIYSDGRRTQYMDSVK / GRAAGTFDS showed 78 nM (5 of 6 replicates).
The variant GFELNSYGIS / VIYSDGRRTFYQDSVK / GRMAGTFDS showed 17 nM (6 of 6 replicates).

The range of this assay differs from that of the first round, and the authors advise against merging the two. A sequence that the file lists under several names has all its replicates pooled. Of ten entries with the parent sequence, four were seen in most replicates (averages 2.2 nM to 240 nM), three in one and three in none, so single entries are noisy. In the paper, a design with two or fewer of six values counts as a poor binder. Nonspecific signal, from three strains lacking the peptide, appeared in 1% of pairings of all heavy chain designs, centred on 120 nM (5% of these signals below 7.0 nM); values are not corrected for it.